PMC5764337 (PLoS ONE, 2018)

Molecular target: B/BR/60/08 virus NA (Influenza B virus, UniProt C0LT34)
Type: biochemical
Details: read-out: NA enzyme inhibition assay (mean IC50 ± SD)

`CCC(CC)O[C@@H]1C=C(C(=O)O)C[C@H](N)[C@H]1NC(C)=O` [Oseltamivir carboxylate, oseltamivir carboxylate] showed an IC50 of 16.1 nM.
